Columns and labels:
[1] = system: TNF-α production in LPS-stimulated human whole blood; assay: Inhibition of TNF-α production from human whole blood (hWBA); format: cell-based
[2] = Area under the curve determination of plasma levels in rats (rrAUC); format: in vivo; settings: rat, oral 10 mg/kg, plasma 0.5-6 h; read-out: RR AUC (nM · h), rapid rat AUC (rrAUC)
Procedure: Area under the Curve Determinations of Plasma Levels in Rats (rrAUC)
To gain insight into the pharmacokinetic properties of the compounds of the invention, plasma levels of the compounds in rats were determined according to the protocol described in Korfmacher, W. A.; Cox, K. A.; Ng, K. J.; Veals, J.; Hsieh, Y.; Wainhaus, S.; Broske, L.; Prelusky, D.; Nomeir, A.; White, R. E. Rapid Commun. Mass Spectrom. 2001, 15, 335. Briefly, rats, after an overnight fast, were dosed orally with the test compound at a dose of 10 mg/kg in a 5 mL/kg dose volume. Blood was collected at 0.5, 1, 2, 3, 4, and 6 h post-dosing. Mass spectrometry using high performance liquid chromatography was used to identify and measure the concentrations of the test compounds in the plasma at the various time points. The parent ion of each test compound was used to identify and quantitate the compounds in plasma.

[3] = Homo sapiens, IC50 for inhibition of TNF-α production
[4] = IC50 for inhibition of TNF-α production
[5] = Homo sapiens, IC50 for TNF-α production

IC50 [1, 3]	IC50 [1, 5]	Compound	also measured
1090 nM	–	COc1ccc2c(c1)C(=O)N(C[C@@]1(C#Cc3ccc(C(N)C(F)(F)F)cc3)NC(=O)NC1=O)C2 (some centres unmarked) [Compound 300]	–
507 nM	–	COc1ccc2c(c1)C(=O)N(C[C@@]1(C#Cc3ccc4c(c3)CN(C)C(=O)N4)NC(=O)NC1=O)C2 [Compound 306]	–
1110 nM	–	COc1ccc2c(c1)C(=O)N(C[C@@]1(C#Cc3ccc4c(N)nn(C)c4c3)NC(=O)NC1=O)C2 [Compound 718]	–
245 nM	–	COc1ccc2c(c1)C(=O)N(C[C@@]1(C#Cc3ccc(C4CCN(C)CC4)nc3)NC(=O)NC1=O)C2 [Compound 745]	–
–	1240 nM	CON=C(c1ccc(C#C[C@]2(CN3Cc4ccc(OC)cc4C3=O)NC(=O)NC2=O)cc1)N1CCOCC1 [Compound 932]	–
48 nM	–	COc1ccc2c(c1)C(=O)N(C[C@@]1(C#Cc3ccc(-c4nc(-c5cnn(C)c5)ccc4OC(=O)C(C)C)cc3)NC(=O)NC1=O)C2 [Compound 989]	–
514 nM	–	COc1ccc2c(c1)C(=O)N(C[C@@]1(C#Cc3cncc(-c4ccc(N)nc4)c3)NC(=O)NC1=O)C2 [Compound 2206]	–
122 nM	–	COc1ccc2c(c1)C(=O)N(C[C@@]1(C#Cc3ccc([C@@]4(CN)NC(=O)NC4=O)cc3)NC(=O)NC1=O)C2 [Compound 2218]	–
1000 nM	–	COc1ccc2c(c1)C(=O)N(C[C@@]1(C#Cc3cncc(NS(=O)(=O)C(C)C)c3)NC(=O)NC1=O)C2 [Compound 2241]	–
3040 nM	–	COc1ccc2c(c1)C(=O)N(C[C@@]1(C#Cc3ccnc(SC)n3)NC(=O)NC1=O)C2 [Compound 2249]	–
–	10000 nM	COc1ccc2c(c1)C(=O)N(C[C@]1(C#Cc3ccnc(SC)n3)NC(=O)NC1=O)C2 [Compound 2250]	–
–	1180 nM	COc1ccc2c(c1)C(=O)N(C[C@@]1(C#Cc3ccc(F)c(C(O)(O)C(F)(F)F)c3)NC(=O)NC1=O)C2 [Compound 2251]	–
–	736 nM	COc1ccc2c(c1)C(=O)N(C[C@@]1(C#Cc3ccc([C@H]4CCC(=O)N4)cc3)NC(=O)NC1=O)C2 [Compound 2259]	–
–	1030 nM	COc1ccc2c(c1)C(=O)N(C[C@@]1(C#Cc3ccc(-c4cnn(C)c4)nc3)NC(=O)NC1=O)C2 [Compound 2269]	–
–	225 nM	CCC1(c2ccc(C#CC3(CN4Cc5ccc(OC)cc5C4=O)NC(=O)NC3=O)cc2)NC(=O)NC1=O (centres unmarked) [Compound 2279]	–
–	268 nM	COc1ccc2c(c1)C(=O)N(CC1(C#Cc3ccc(N/C(=N\C#N)NC4CC4)cc3)NC(=O)NC1=O)C2 (centres unmarked) [Compound 2297]	–
–	186 nM	COc1ccc2c(c1)C(=O)N(C[C@@]1(C#Cc3ccc4c(c3)CC[C@]43NC(=O)NC3=O)NC(=O)NC1=O)C2 [Compound 2313]	–
–	281 nM	COc1ccc2c(c1)C(=O)N(C[C@@]1(C#Cc3ccc4c(c3)CC[C@@]43NC(=O)NC3=O)NC(=O)NC1=O)C2 [Compound 2314]	–
–	151 nM	COc1ccc2c(c1)C(=O)N(C[C@@]1(C#Cc3ccc4c(c3)CCC43NC(=O)NC3=O)NC(=O)NC1=O)C2 (some centres unmarked) [Compound 2315]	AUC [2]: 0.673 µM·h

Second part, the molecule before the results:

Compound	IC50 [1, 3]	IC50 [1, 5]	also measured
O=C1NC(=O)[C@](C#Cc2cccnc2)(CN2Cc3ccc(I)cc3C2=O)N1 [Compound 308]	–	–	IC50 [1, 4]: 100000 nM
O=C1NC(=O)[C@](C#Cc2cccnc2)(CN2Cc3ccc(I)cc3C2=O)N1 [Compound 309]	–	–	IC50 [1, 4]: 977 nM
COc1ccc2c(c1)C(=O)N(C[C@@]1(C#Cc3ccc(-c4cc(N)n(C)n4)cc3)NC(=O)NC1=O)C2 [Compound 709]	223 nM	–	–
COc1ccc2c(c1)C(=O)N(C[C@@]1(C#Cc3ccc4c(c3)c(N)nn4C)NC(=O)NC1=O)C2 [Compound 746]	2900 nM	–	–
CCC(=O)Oc1ccc(-c2cnn(C)c2)nc1-c1ccc(C#C[C@]2(CN3Cc4ccc(OC)cc4C3=O)NC(=O)NC2=O)cc1 [Compound 988]	55.9 nM	–	–
COc1ccc2c(c1F)C(=O)N(C[C@@]1(C#Cc3ccc(C4(C)NC(=O)NC4=O)c(F)c3)NC(=O)NC1=O)C2 (some centres unmarked) [Compound 1302]	148 nM	–	–
COc1ccc2c(c1F)C(=O)N(C[C@@]1(C#Cc3cncc(F)c3)NC(=O)NC1=O)C2 [Compound 1310]	305 nM	–	–
COc1ccc2c(c1)C(=O)N(C[C@@]1(C#Cc3nc(N4C[C@@H](O)CC4=O)ccc3OC)NC(=O)NC1=O)C2 [Compound 1500]	837 nM	–	–
COc1ccc2c(c1)C(=O)N(C[C@@]1(C#Cc3nc(N4C(=O)CC[C@H]4CO)ccc3OC)NC(=O)NC1=O)C2 [Compound 1502]	1540 nM	–	–
COc1ccc2c(c1)C(=O)N(C[C@@]1(C#Cc3nc(N4C[C@H](O)CC4=O)ccc3OC)NC(=O)NC1=O)C2 [Compound 1503]	1130 nM	–	–
COc1ccc2c(c1)C(=O)N(C[C@@]1(C#Cc3nc(-c4cncc(C#N)c4)ccc3OC)NC(=O)NC1=O)C2 [Compound 1513]	1790 nM	–	–
COc1ccc2c(c1)C(=O)N(C[C@@]1(C#Cc3ccc(C4(O)CCNCC4)cc3)NC(=O)NC1=O)C2 [Compound 1700]	2390 nM	–	–
COc1ccc2c(c1F)C(=O)N(C[C@@]1(C#Cc3ccc(C4(O)CCNCC4)cc3)NC(=O)NC1=O)C2 [Compound 1701]	137 nM	–	–
COc1ccc2c(c1)C(=O)N(C[C@@]1(C#Cc3ccc(N4C(=O)CCC4C(=O)NC4CC4)cc3)NC(=O)NC1=O)C2 (some centres unmarked) [Compound 1902]	127 nM	–	–
COc1ccc2c(c1)C(=O)N(C[C@@]1(C#Cc3ccc(C4(CN)NC(=O)NC4=O)cc3)NC(=O)NC1=O)C2 (some centres unmarked) [Compound 2215]	229 nM	–	–
COc1ccc2c(c1)C(=O)N(C[C@@]1(C#Cc3ccc4c(N)n[nH]c4c3)NC(=O)NC1=O)C2 [Compound 2236]	310 nM	–	–
CCN1CCN(c2n[nH]c3cc(C#C[C@]4(CN5Cc6ccc(OC)cc6C5=O)NC(=O)NC4=O)ccc23)CC1 [Compound 2239]	188 nM	–	–
COc1ccc2c(c1)C(=O)N(C[C@@]1(C#Cc3cncc(NS(C)(=O)=O)c3)NC(=O)NC1=O)C2 [Compound 2240]	386 nM	–	–
COc1ccc2c(c1)C(=O)N(C[C@@]1(C#Cc3cc(Cl)cnc3N)NC(=O)NC1=O)C2 [Compound 2248]	10000 nM	–	–
COc1ccc2c(c1)C(=O)N(C[C@@]1(C#Cc3ccc(N/C(N)=N\C#N)cc3)NC(=O)NC1=O)C2 [Compound 2275]	–	150 nM	–
COc1ccc2c(c1)C(=O)N(C[C@@]1(C#Cc3ccc(C4(C)NC(=O)NC4=O)nc3)NC(=O)NC1=O)C2 (some centres unmarked) [Compound 2280]	–	544 nM	–
